Laboratory results reported in BindingDB's records for US12268687 (Janssen Pharmaceutica, 2025).

Amino acid sequences for entries named in this document (tags omitted). A change or cut given only in a name is not applied to a line headed by its entry.
UniProt Q86SK9: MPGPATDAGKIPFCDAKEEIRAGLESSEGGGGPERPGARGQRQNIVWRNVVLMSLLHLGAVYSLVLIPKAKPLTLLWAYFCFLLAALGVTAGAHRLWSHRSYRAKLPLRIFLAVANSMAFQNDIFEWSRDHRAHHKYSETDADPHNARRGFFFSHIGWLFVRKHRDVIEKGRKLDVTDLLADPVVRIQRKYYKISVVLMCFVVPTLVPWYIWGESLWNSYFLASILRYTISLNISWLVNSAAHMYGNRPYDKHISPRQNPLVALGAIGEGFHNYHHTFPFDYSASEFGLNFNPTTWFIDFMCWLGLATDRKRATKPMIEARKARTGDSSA

Molecular target: Stearoyl-CoA desaturase 5 (Homo sapiens, UniProt Q86SK9)
Experiment: Inhibition of SDC1 and SCD5

`Cn1cc(OC(=O)N2CCC(Oc3cc(F)cc(F)c3)CC2)ccc1=O` showed an IC50 of 2760 nM.
